Ab-14 heavy chain CDR variants: yeast mating affinities

Source: Li et al. 2023 (doi:10.1038/s41467-023-39022-2), MIT Lincoln Laboratory and A-Alpha Bio; data file from the FLAb repository.

Target: peptide PDVDLGDISGINAS, taken from heptad repeat 2 (HR2) of SARS-CoV-2 spike.

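Phage display of a naive human antibody library on the peptide gave the parent. This is the validation round: designs drawn from the data on random variants, tested in the same kind of assay. Group labels follow the data file (Ctrl: baseline library sampled from a position-specific scoring matrix, with some repeated check sequences; En: ensemble of fine-tuned language models; GP: Gaussian process model; GPLM: also part of the Gaussian process libraries; HC: hill climbing; Gen: genetic algorithm; Gibbs: Gibbs sampling; a sequence that several methods proposed may carry one label only). The assay is AlphaSeq: two haploid yeast populations carry antibody and antigen on their surface. Mating (16 h, 30 °C) was followed by selection of diploids and sequencing of their barcodes. A regression on co-assayed BCL2-family reference pairs converts the normalised counts of each replicate to an apparent Kd. The assay was run in six technical replicates.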

The variants keep the light chain, the linker and the frameworks of Ab-14 (scFv order VH, the linker GGGGSGGGGSGGGGS, VL).
VH: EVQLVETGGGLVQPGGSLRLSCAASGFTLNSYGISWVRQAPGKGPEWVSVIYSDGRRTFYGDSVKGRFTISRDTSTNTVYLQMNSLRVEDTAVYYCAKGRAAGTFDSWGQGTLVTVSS
VL: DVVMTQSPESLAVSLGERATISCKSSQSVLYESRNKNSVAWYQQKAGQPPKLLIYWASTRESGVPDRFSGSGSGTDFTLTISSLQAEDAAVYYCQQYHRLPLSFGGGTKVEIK

Each variant is given by its three heavy chain CDRs, as the data file delimits them; those of the parent are GFTLNSYGIS, VIYSDGRRTFYGDSVK, GRAAGTFDS.
Affinities are written as log10 Kd with Kd in nM; a lower number is a better binder.
The mean shown is taken over the replicates in which the pair was detected.
"no signal" means that the variant was in the library but no mating with the target was seen in any replicate; the authors take this as a sign of poor binding, and no number exists.
Empty control strains, which show no peptide, gave a signal in 1% of pairings with all heavy chain designs; the median was 2.08 and 95% of these signals were weaker than 0.84. No background was subtracted.
A sequence that the file lists under several names has all its replicates pooled.
The authors averaged sequences with at least three values out of six and counted those with two or fewer as poor binders.
A sequence measured in both rounds can read differently, since the two assays cover different ranges.

CDR-H1 | CDR-H2 | CDR-H3 | group | mean, log10 nM | replicates with signal
GFNLNSYGIS | VIYSDGRRTFYGDRVK | GEAAGTFDS | GP_Gen | 1.16 | 6/6
GFDLEDYGIS | VIYADGRRTFYADSVK | GNVAGTFDS | En_HC | -0.84 | 5/6
GFELNSYGIS | VIYSDGRRTFYGDNVK | GRTAGTFDS | GPLM_Gibbs | -0.18 | 6/6
GFDLNEYGIS | VIYADGMRTSYADSVK | GENAGTFDV | En_Gen | 0.25 | 6/6
GFTLNSYGIS | VIYADGRRTFYGDDVK | GRNAGTFDS | Ctrl | 0.46 | 6/6
GFTLNSYGIS | VIYSDGRRTFYGDSVK | GRAAATFNS | Ctrl | 3.95 | 1/6
GFQLDEYGIS | VIYADGERTMYSNDVK | GTEGGTFQM | En_Gibbs | 1.64 | 4/6
GFTLNSYGIS | VIYSDGYRTFYGDSVK | GRAAGTFLS | Ctrl | no signal | 0/6
GFQLNSYGIS | VIYSDGRRTVYGDSVK | GRAAGTFDS | GP_HC | 1.18 | 3/6
GFDILEYGIS | VIYADGQRTAYKPTVK | GNHTGLVFI | En_Gibbs | no signal | 0/6
GFDLNEYGIS | VIYADGRRTFYTDSVK | GNLAGTFDS | En_HC | -0.81 | 6/6
GFSLDEYGIS | VIYADGVRTQYHPKVK | GLQGFIFDQ | En_Gibbs | 2.95 | 1/6
GFSLNDYGIS | VIYSDGRRTFYSDSVK | GRTAGTFDS | GPLM_Gen | -0.30 | 6/6
GFTLNSYGIS | VIYEDGERGFYGDSVS | GRLAGTFDS | Ctrl | 3.02 | 1/6
GFDLNEYGIS | VIYADGMRTAYSDSVK | GNVAGTFDV | En_Gen | -0.11 | 6/6
GFYLNEYGIS | VIYSDGRRTFYGDSVK | GRQAGTFDS | GP_Gen | -0.47 | 1/6
GFTLNEYGIS | VIYSDGRRTFYGDSVK | GRAAVTFCQ | GPLM_HC | no signal | 0/6
GFTLNEYGIS | VIYSDGRRTFYHDSVK | GRAAGTFIS | GP_HC | no signal | 0/6
GFTLYEYGIS | VIYSDGRRTFYGDSVK | GRAAGTFDL | GP_HC | 0.95 | 1/6
GFDLNEYGIS | VIYADGMRTFYADSVK | GTNAGTFDL | En_Gen | -0.55 | 6/6
GFSLNDYGIS | VIYSDGRRTFYGDSVK | GKAAGTFDS | GPLM_Gen | -0.50 | 6/6
HFSLNEYGIS | VIYSDGRRTFYHDSVK | GRTAGTFDS | GP_Gibbs | 1.38 | 1/6
GFDLNEYGIS | VIYADGKRTFYSDSVK | GENAGFFDV | En_HC | 2.45 | 4/6
GFTLNSYGIS | VIYSDGRRTFYGDSVK | GDAAGTFDS | Ctrl | 1.15 | 6/6
GFDLNEYGIS | VIYADGRRTFYVDSVK | GANAGTFDS | En_HC | -0.53 | 6/6
GFNLDEYGIS | VIYADGRRTFYQDDVK | GNVAGTFDS | En_HC | -0.78 | 6/6
GFSLNDYGIS | VIYSDGRRTVYIDSVK | GRAAGTFDS | GPLM_HC | no signal | 0/6
GFDLNSYGIS | VIYSDGRRTFYGDQVK | GRMAGTFDS | GP_Gen | 1.15 | 5/6
GFDLNEYGIS | VIYADGSRTFYADSVK | GEVAGTFDI | En_HC | -0.21 | 6/6
GFDLNEYGIS | VIYADGVRTAYADSVK | GEHAGTFDV | En_Gen | -0.25 | 6/6
GFTLNKYGIS | VIYSDGRRTFIGDSVK | GQAAGTFDS | Ctrl | 2.16 | 1/6
GFDLNEYGIS | VIYADGMRTAYSDSVK | GGNAGTFDQ | En_Gen | -0.18 | 6/6
GFTLESYGIS | VIYADGRRTFYGDSVK | GRAAGTFDM | GP_Gen | 0.79 | 6/6
GFNLNEYGIS | VIYADGMRVRYANNFK | GYLNVTLMV | En_Gibbs | no signal | 0/6
GFTLNSYGIS | VIYSDGRRTFYVDDVK | GQLAGTFDS | GP_HC | 1.65 | 5/6
GFTLNSYGIS | VIYADGRRTFYGDAVK | GRAAGTFKS | GP_HC | no signal | 0/6
GFTLNWYGIS | VIYSDGRRTFYSDSVK | GRLAGTFDT | GP_HC | no signal | 0/6
MFSLNSYGIS | VIYADGRRTFYGDSVK | GQAAGTFDK | GP_Gibbs | 1.18 | 5/6
GFWLNEYGIS | VIYSDGRRTFYHDSVK | GRAAVTFDL | GP_HC | 2.32 | 1/6
GFTLNSYGIS | VIYSDGRRTFYADSVK | GKLAGTFDS | GPLM_Gibbs | 0.74 | 6/6
GFDLNEYGIS | VIYADGKRTYYADSVK | GQNAGTFDV | En_Gen | -0.56 | 6/6
GFSLNSYGIS | VIYSDGRRTFYGDSVK | GHAAGTFDD | GP_Gibbs | 1.08 | 5/6
GFNLNSYGIS | VIYADGRRTSYGDSVK | GRAAGMDDS | Ctrl | no signal | 0/6
GFDLNSYGIS | VIYSDGRRTFYGDSVK | GRAAGAFRS | GP_HC | 1.48 | 1/6
GADLNEYGIS | VIYADGSRTVYADTVK | GHHGGIFDS | En_Gibbs | no signal | 0/6
GNTLNSYGIS | VIYSDGRRTFYGDKVK | TRAAGTFDS | Ctrl | no signal | 0/6
GFTLNSYGIS | VIYSDGFRTFYEDSVK | GREAGTFDS | Ctrl | 1.82 | 5/6
GFTLNSYGIS | VIYSDGRRTFYQDSVK | GAAAGTFDS | Ctrl | 1.24 | 5/6
GFSLNSYGIS | VIYSDGRRTFYGDSVK | GQTAGTFDF | GPLM_Gen | 0.67 | 6/6
GFQLESYGIS | VIYSDGRRTFYGDSVK | GRAAGTFDS | Ctrl+GP_HC | 1.17 | 5/12
LFTLNSYGIS | VIYADGRRTFYGDFVK | GRAAGTFDS | Ctrl | no signal | 0/6
GFTLNSYGHS | VIYADGRRTFYGDSVK | GRAKGTFDS | Ctrl | no signal | 0/6
GFDLNEYGIS | VIYADGMRTAYSDSVK | GNQAGTFDM | En_Gen | -0.02 | 6/6
GFTLNSYGIS | VIYSDGRRTFYGDSVK | GKVAGTFDT | GPLM_Gen | 1.21 | 6/6
GFDLNSYGIS | VIYSDGRRTFYGDNVK | GEAAGTFDS | GP_Gen | 0.43 | 6/6
GFSLNSYGIS | VIYSDGRRTFYCDSVK | GMTAGTFDS | GP_Gibbs | 1.93 | 5/6

From the list, the first 9 with no signal in any replicate:

CDR-H1,CDR-H2,CDR-H3,group,"mean, log10 nM",replicates with signal
GFTLNSYGIS,VIYSDGYRTFYGDSVK,GRAAGTFLS,Ctrl,no signal,0/6
GFDILEYGIS,VIYADGQRTAYKPTVK,GNHTGLVFI,En_Gibbs,no signal,0/6
GFTLNEYGIS,VIYSDGRRTFYGDSVK,GRAAVTFCQ,GPLM_HC,no signal,0/6
GFTLNEYGIS,VIYSDGRRTFYHDSVK,GRAAGTFIS,GP_HC,no signal,0/6
GFSLNDYGIS,VIYSDGRRTVYIDSVK,GRAAGTFDS,GPLM_HC,no signal,0/6
GFNLNEYGIS,VIYADGMRVRYANNFK,GYLNVTLMV,En_Gibbs,no signal,0/6
GFTLNSYGIS,VIYADGRRTFYGDAVK,GRAAGTFKS,GP_HC,no signal,0/6
GFTLNWYGIS,VIYSDGRRTFYSDSVK,GRLAGTFDT,GP_HC,no signal,0/6
GFNLNSYGIS,VIYADGRRTSYGDSVK,GRAAGMDDS,Ctrl,no signal,0/6